Target: 5-hydroxytryptamine receptor 2C (Homo sapiens, UniProt P28335)

Chains of the proteins cited; added tags and fusions are not shown. Lines headed by an entry give the natural chain unless they say otherwise; changes in a name come on top.
UniProt P28335: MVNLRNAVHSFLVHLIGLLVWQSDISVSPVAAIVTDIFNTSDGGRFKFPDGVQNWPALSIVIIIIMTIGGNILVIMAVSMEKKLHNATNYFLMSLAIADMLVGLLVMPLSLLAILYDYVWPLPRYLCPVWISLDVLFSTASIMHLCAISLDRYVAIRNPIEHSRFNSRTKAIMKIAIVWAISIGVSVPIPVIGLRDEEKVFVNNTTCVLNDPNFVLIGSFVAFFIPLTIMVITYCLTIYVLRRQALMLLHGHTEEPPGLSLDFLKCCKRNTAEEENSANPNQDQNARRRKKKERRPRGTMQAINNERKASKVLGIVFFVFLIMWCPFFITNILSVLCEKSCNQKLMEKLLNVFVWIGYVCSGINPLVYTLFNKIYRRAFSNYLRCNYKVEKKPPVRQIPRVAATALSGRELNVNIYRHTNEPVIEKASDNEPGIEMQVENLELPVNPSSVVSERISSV

- Ki: 12 nM
Structure (SMILES): Cn1ccc2cc3c(cc21)CCN3C(=O)Nc1cccnc1
